Source: ChEMBL document CHEMBL1129539, “2,4-diamino-5-deaza-6-substituted pyrido[2,3-d]pyrimidine antifolates as potent and selective nonclassical inhibitors of dihydrofolate reductases” (J Med Chem, 1996)

Test: Selectivity ratio is defined as IC50 human DHFR/IC50 tgDHFR

| Selectivity ratio | SMILES |
| --- | --- |
| 20.4 | COc1ccc(CN(C)c2cnc3nc(N)nc(N)c3c2)c(OC)c1OC |
| 20 | CN(Cc1ccccc1)c1cnc2nc(N)nc(N)c2c1 |
